These results are taken from patent publication US20200291018A1, “TAM KINASE INHIBITORS” (SYROS PHARMACEUTICALS, INC., priority 2017, published 2020).

Amino acid sequences for entries named in this document (tags omitted). Residues count along the entry.
UniProt Q06418, 41-890 limits assumed: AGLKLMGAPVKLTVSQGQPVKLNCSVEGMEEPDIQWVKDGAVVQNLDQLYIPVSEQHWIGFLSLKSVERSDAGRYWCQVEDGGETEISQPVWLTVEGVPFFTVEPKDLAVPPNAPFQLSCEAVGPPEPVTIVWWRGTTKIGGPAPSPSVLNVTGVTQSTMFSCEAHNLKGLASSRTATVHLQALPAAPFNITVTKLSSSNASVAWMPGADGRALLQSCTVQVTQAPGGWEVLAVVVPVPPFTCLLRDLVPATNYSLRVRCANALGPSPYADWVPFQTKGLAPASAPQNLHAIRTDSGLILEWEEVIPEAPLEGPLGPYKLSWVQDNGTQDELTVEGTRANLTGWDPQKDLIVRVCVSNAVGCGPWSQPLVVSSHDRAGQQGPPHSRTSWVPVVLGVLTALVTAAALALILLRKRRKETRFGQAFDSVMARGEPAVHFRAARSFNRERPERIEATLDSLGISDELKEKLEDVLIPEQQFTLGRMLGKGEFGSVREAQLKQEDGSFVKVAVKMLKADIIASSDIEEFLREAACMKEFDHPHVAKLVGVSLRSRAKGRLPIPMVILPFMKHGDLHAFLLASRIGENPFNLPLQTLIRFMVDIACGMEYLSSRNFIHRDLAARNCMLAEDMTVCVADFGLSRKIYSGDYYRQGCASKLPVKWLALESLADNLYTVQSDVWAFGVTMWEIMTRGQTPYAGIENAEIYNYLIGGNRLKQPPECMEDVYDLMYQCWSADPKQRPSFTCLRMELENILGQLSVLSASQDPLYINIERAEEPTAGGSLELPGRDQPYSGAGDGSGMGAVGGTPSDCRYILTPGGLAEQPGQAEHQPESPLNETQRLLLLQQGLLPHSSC
UniProt Q12866, 21-999 limits assumed: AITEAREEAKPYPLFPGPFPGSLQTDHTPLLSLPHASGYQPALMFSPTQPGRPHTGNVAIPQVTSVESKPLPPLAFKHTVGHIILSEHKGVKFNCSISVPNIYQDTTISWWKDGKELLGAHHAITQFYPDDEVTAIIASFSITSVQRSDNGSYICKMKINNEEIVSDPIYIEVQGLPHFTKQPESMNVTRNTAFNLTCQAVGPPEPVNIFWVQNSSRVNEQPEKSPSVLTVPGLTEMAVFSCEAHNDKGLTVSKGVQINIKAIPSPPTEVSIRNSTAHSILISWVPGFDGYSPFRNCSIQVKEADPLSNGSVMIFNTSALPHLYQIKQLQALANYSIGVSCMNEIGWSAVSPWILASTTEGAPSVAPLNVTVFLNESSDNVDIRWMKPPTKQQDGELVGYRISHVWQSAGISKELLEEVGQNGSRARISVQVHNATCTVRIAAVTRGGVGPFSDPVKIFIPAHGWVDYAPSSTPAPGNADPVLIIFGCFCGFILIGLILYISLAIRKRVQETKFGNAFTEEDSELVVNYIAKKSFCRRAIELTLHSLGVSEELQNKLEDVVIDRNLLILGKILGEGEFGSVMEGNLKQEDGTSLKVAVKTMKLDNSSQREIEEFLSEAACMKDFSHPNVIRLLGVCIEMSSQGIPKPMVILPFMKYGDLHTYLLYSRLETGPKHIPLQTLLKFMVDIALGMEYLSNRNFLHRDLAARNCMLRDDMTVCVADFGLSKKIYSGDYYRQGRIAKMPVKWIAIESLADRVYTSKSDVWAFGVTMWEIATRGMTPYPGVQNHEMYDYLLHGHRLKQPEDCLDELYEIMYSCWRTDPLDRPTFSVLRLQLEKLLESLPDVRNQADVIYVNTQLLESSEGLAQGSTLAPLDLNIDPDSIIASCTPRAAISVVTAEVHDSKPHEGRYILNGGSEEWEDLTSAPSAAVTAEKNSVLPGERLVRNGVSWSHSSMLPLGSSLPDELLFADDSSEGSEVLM
UniProt P36888, 27-993 limits assumed: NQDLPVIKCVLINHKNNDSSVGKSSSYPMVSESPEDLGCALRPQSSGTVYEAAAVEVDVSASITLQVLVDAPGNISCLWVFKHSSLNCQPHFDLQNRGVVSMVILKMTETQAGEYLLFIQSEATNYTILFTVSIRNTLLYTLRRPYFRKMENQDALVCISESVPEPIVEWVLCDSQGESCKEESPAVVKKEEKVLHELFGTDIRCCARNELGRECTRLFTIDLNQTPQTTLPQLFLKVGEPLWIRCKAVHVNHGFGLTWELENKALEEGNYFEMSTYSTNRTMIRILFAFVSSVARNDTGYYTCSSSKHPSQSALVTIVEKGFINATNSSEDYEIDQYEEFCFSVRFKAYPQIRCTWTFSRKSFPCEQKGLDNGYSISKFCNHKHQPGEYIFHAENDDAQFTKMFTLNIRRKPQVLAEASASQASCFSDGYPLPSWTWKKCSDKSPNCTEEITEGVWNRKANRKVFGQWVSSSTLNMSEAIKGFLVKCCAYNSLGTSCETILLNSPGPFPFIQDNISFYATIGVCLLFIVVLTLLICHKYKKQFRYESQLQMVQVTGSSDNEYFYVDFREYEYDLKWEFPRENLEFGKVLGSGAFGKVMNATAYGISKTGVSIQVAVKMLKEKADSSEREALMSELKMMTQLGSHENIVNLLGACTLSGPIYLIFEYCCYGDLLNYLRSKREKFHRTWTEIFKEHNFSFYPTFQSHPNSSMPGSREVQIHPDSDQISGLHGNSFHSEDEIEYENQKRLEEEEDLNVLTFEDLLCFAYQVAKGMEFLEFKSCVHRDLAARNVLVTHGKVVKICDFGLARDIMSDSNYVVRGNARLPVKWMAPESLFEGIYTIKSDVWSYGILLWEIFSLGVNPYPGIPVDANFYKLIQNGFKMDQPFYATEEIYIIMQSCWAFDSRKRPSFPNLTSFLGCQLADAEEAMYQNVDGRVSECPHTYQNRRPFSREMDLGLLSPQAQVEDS
UniProt P30530, 26-894 limits assumed: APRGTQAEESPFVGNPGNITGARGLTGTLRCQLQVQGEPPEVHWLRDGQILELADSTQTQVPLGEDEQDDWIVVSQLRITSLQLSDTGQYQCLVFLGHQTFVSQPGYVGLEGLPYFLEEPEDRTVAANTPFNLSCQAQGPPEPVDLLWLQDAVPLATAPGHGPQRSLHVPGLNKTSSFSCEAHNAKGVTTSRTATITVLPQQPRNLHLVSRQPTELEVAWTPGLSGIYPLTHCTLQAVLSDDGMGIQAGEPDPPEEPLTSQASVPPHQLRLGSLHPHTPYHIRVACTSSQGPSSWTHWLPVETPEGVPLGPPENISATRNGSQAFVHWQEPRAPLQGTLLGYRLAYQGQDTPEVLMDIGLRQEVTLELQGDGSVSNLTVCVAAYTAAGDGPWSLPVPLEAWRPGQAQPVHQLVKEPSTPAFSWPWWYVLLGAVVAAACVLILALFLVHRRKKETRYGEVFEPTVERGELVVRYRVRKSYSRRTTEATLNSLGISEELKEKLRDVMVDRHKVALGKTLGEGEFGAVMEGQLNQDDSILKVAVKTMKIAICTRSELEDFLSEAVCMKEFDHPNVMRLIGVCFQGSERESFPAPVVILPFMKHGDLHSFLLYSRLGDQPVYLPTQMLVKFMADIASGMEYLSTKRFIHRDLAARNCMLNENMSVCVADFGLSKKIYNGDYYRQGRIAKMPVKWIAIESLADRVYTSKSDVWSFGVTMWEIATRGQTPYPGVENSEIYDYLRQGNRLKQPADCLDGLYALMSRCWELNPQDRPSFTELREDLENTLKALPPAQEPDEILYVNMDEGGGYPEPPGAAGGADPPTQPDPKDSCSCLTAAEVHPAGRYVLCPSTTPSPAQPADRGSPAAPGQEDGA

Broadly, the pIC50 is the IC50 on a negative log10 scale, so that one unit is a factor of ten.

pIC50: −log10 of the molar value.

For experiment [1], the target named is TYRO3 (Homo sapiens, UniProt Q06418). Kind of experiment: TR-FRET kinase activity assay, TYRO3. The conditions noted are these: read-out: Tyro3 IC50, ATP at Km, 60 minutes, tested form: HCl. How it is done: (§1) IC50 values for compound inhibition of AXL, FLT3, MERTK and TYRO3 activity were determined using a TR-FRET activity assay. A peptide substrate with a fluorescent label is phosphorylated on a tyrosine by each enzyme, where the now phosphorylated product is bound by a Europium-labeled antibody specific to that phosphorylation site. The proximity between the antibody and the substrate gives a signal known as TR-FRET. As the enzyme is inhibited by compound, less phosphorylated peptide product is made, causing a decrease in overall signal.
(§2) Activity assays were performed in a 384-well, small volume, black microplates in an active enzyme volume of 10 uL and final developed volume of 20 uL. Final assay conditions are 50 mM HEPES pH 7.5, 10 mM MgCl2, 1 mM EGTA, 0.01% Brij 35 and 1 mM DTT, all at RT. Enzyme, substrate-labeled peptide and compound are mixed, and then the reaction is initiated with the addition of ATP at Km concentration for each enzyme. The reaction is allowed to run 60 minutes and then quenched with a 12.5 mM EDTA (ethylenediamine tetraacetic acid) solution. The plate is then developed with the addition of Europium-labeled antibody for a final volume of 20 uL and is then incubated for 30 minutes in darkness. Plates are read in a PHERASTAR® plate reader. Data are analyzed in GraphPad PRISM.
Background: Time-resolved FRET reads energy transfer from a long-lived donor to a nearby acceptor.

Experiment [2] addresses MERTK (Homo sapiens, UniProt Q12866). Kind of experiment: TR-FRET kinase activity assay, MERTK. To be noted: tested form: HCl. How it is done: as §1, §2
Experiment [3] has as its target FLT3 (Homo sapiens, UniProt P36888). Nature of the experiment: TR-FRET kinase activity assay, FLT3. The conditions noted are these: read-out: Flt3 IC50, ATP at Km, 60 minutes, tested form: HCl. How it is done: as §1, §2
For experiment [4], the target named is AXL (Homo sapiens, UniProt P30530). Nature of the experiment: TR-FRET kinase activity assay, AXL. The conditions noted are these: read-out: Axl IC50, ATP at Km, 60 minutes, tested form: HCl. How it is done: as §1, §2

Turning to `CCCCNc1ncc2c(=O)n(C3CCN(C)CC3)cc([C@H]3CC[C@H](O)CC3)c2n1`, the negative logarithm of the IC50 (pIC50) in experiment [1] was > 7.00; in experiment [2] (read-out: Mer IC50, TR-FRET activity assay, ATP at Km, 60 minutes) it was > 7.00; in experiment [3], > 7.00; in experiment [4] it was 6.00 to 7.00. Besides, the “Mer/Flt3 ratio (FLT3 IC50/Mer IC50)” value in experiment [2] (ratio calculated as FLT3 IC50/Mer IC50) is “+ (a ratio of >2.0 and <10)”.
